From article PMC5406460 (Frontiers in Microbiology, 2017)
Non-standard residues stand in square brackets, D forms with d. Residues, ends and D or L forms follow the SMILES beside them. ξ: configuration not given here. *: point of attachment. ξF = NC(Cc1ccccc1)C(=O)O; Cbz = O=C(OCc1ccccc1)*; CH2Cl = ClC*

Test: in vitro
Conditions: human, HepG2 cells

| SMILES | CC50 [µM] |
| --- | --- |
| CC(C)C[C@H](NC(=O)[C@H](Cc1ccccc1)NC(=O)c1cnccn1)B(O)O [Pyr-FL-BA, Pyrazine-Phenylalanine-Leucine-Boronic acid] | 250 |
| CC(C)C[C@H](NC(=O)[C@H](Cc1ccccc1)NC(=O)c1cnccn1)C(=O)CCl [Pyr-FL-CMK, N-((S)-1-(((S)-1-chloro-5-methyl-2-oxohexan-3-yl)amino)-1-oxo-3-phenylpropan-2-yl)pyrazine-2-carboxamide] | > 500 |
| O=C(CNC(=O)OCc1ccccc1)NCC(=O)NC(Cc1ccccc1)C(=O)CCl (stereo not drawn) [Z-GGF-CMK, Carboxybenzyl-glycine-glycine-phenylalanine-CMK] (Cbz-Gly-Gly-[ξF]-CH2Cl) | 125 |
| CC(C)C[C@H](NC(=O)CNC(=O)OCc1ccccc1)C(=O)NC(Cc1ccccc1)C(=O)CCl (stereo partly drawn) [Z-GLF-CMK, Carboxybenzyl-glycine-leucine-phenylalanine-CMK] (Cbz-Gly-Leu-[ξF]-CH2Cl) | 60 |
